DT40 TDP1 no CPT: qHTS for Inhibitors of human tyrosyl-DNA phosphodiesterase 1 (TDP1): qHTS in cells in absence of CPT | DT40 Tdp1-/- hTDP1 cells, no CPT, ATP luminescence, 48 h | Potency, µM (top dose mostly 46.2 µM), without a hit: at the highest dose activity change, negative = growth inhibition, usual class: inhibitors | 420,000 compounds, 15% hits | AID 686978, 2013; note: potency is the fitted concentration of half-maximal effect; % is set by controls: 0 for no effect and ±100 for the full control effect; nearly all actives have a fitted effect of over 55% in size
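Chicken DT40 Tdp1-/- cells complemented with human TDP1, screened without camptothecin (DMSO vehicle only), 400 cells/well. Compounds pin-transferred, cells incubated at 37 °C for at least 48 hr. Growth read as ATP-dependent luminescence (CellTiter-Glo, 30 min at RT).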
uPA generation: inhibitors of cell surface uPA generation; cell surface uPA generation assay, qHTS; Potency, µM (series often up to 38.3 µM), for inactives: at the highest dose activity change, negative = inhibition, usual class: inhibitors; 330,000 compounds, 0.31% hits; AID 540303; active = well fitted inhibition curve with a large enough effect; inconclusive = small, poorly fitted or top-dose-only effect; inactive = no such curve, though single readings can be large or run the other way; tested in mouse RAW 264.7 cells; note: potency is the fitted concentration of half-maximal effect; % is set by controls: 0 for no effect and ±100 for the full control effect; nearly all actives have a fitted effect of over 55% in size
miR-21 reporter: miR-21 reporter, rising signal | Potency, µM (highest dose often 38.3 µM), for inactives: at the highest dose reporter change, positive = more light | 340,000 tested, under 10 active | HeLa miR-21 FLuc reporter, luciferase, 48 h; active = well fitted rising curve with a large enough effect; inconclusive = small, poorly fitted or top-dose-only effect; inactive = no such curve, though single readings can be large or run the other way;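 note: % of control where 0% means no effect; miR-21 action dims this reporter so a rising signal means less miR-21 action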
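HeLa miR-21-FLuc reporter line, endogenous miR-21; 2000 cells/well in DMEM/10% FBS; compound titration up to ~40uM final, 48 h, 37 degree Celsius; luciferase detection reagent, 15 min lysis, CCD luminescence.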
DT40 TDP1 CPT: growth inhibition of DT40 Tdp1-/-;hTDP1 cells with camptothecin (screen for TDP1 inhibitors); chicken DT40 Tdp1-/-;hTDP1 cells + 20 nM CPT, ATP luminescence, 48 h; Potency, µM (top dose mostly 46.2 µM), for the others: at the top dose activity change, negative = growth inhibition, actives largely listed as inhibitors; 420,000 compounds, 12% hits; AID 686979; note: potency is the fitted concentration of half-maximal effect; % is set by controls: 0 for no effect and ±100 for the full control effect; nearly all actives have a fitted effect of over 55% in size
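Chicken DT40 Tdp1-/- cells complemented with human TDP1, 400 cells/well, exposed to compounds plus 20 nM camptothecin for at least 48 h at 37 C; viability read as ATP content by CellTiter-Glo luminescence.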
TDP1 inh: TDP1 (human) enzyme inhibition; Q9NUW8; recombinant TDP1, AlphaScreen DNA substrate cleavage; Potency, µM (series often up to 130 µM), for the others: top-dose activity change, negative = inhibition, actives largely listed as inhibitors; 350,000 compounds, 0.28% hits; note: potency is the fitted concentration of half-maximal effect; % is set by controls: 0 for no effect and ±100 for the full control effect; nearly all actives have a fitted effect of over 40% in size
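Compounds were preincubated with Tdp1 (1 nM final) for 15 min at room temperature before substrate (15 nM final) started a 5 min reaction; beads (10 ug/ml final) were then added for 10 min before AlphaScreen detection.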
* marks the source's active call; other numbers are inactive results; [ ] = remark or other dose. In the library only some 16% were active in any assay of this set; here they are far more common. Unless noted, calls come from the whole dose curve; as a rule, active = well fitted curve in the direction sought with a large enough effect; inconclusive = small, poorly fitted or top-dose-only effect, or another doubt; inactive = no such curve, though single readings can be large; an effect the other way counts as inactive or inconclusive.

For COC(=O)C(NC(=O)COc1ccccc1)(Nc1nc2c(s1)CCCC2)C(F)(F)F (centres undefined) the results were DT40 TDP1 no CPT inconclusive, uPA generation -1%, miR-21 reporter -8%, DT40 TDP1 CPT -12% and TDP1 inh -8%.
Screening COC(=O)C(NC(=O)CC(C)C)(Nc1nc2c(s1)CCCC2)C(F)(F)F (centres undefined) returned DT40 TDP1 no CPT 12µM*, miR-21 reporter 0%, DT40 TDP1 CPT 16µM* and TDP1 inh -1%.
Screening CCNC(=O)c1cc2c(c(-c3cccc(-c4ccccc4F)c3)n1)[C@@H](CCO)N(C(=O)CC1CC1)C2 returned DT40 TDP1 no CPT inconclusive and DT40 TDP1 CPT 21µM*.
CCCNC(=O)c1cc2c(c(-c3cccc(-c4ccccc4F)c3)n1)[C@H](CCO)N(C(=O)CC1CC1)C2 was read as DT40 TDP1 no CPT 16µM* and DT40 TDP1 CPT 16µM*.
For CCOC(=O)Cn1cc(-c2ccccc2)nn1 the results were DT40 TDP1 no CPT -3%, uPA generation -4%, miR-21 reporter 1%, DT40 TDP1 CPT 15% and TDP1 inh 2%.
`CC(C)(C)c1ccc(C(=O)NNc2cc(N3CCCCC3)nc(N3CCCCC3)n2)cc1` gave DT40 TDP1 no CPT inconclusive, uPA generation 5%, miR-21 reporter 10%, DT40 TDP1 CPT 26µM* and TDP1 inh 6%.
For CC(C)N1C/C(=C/c2cccnc2)C(=O)/C(=C/c2cccnc2)C1 the results were DT40 TDP1 no CPT 1.6µM*, uPA generation inconclusive, miR-21 reporter inconclusive, DT40 TDP1 CPT 1.6µM* and TDP1 inh 0%.
For CC(C)N1C/C(=C/c2ccsc2)C(=O)/C(=C/c2ccsc2)C1 the results were DT40 TDP1 no CPT 5.8µM*, uPA generation -12%, miR-21 reporter inconclusive, DT40 TDP1 CPT 2.9µM* and TDP1 inh 5%.
For CCN1C(=O)S/C(=C/c2ccsc2)C1=O the results were DT40 TDP1 no CPT -20%, uPA generation 0%, miR-21 reporter -28%, DT40 TDP1 CPT -10% and TDP1 inh 0%.
Screening CC1=NN(c2ccc([N+](=O)[O-])cc2)C(=O)C1[N+](=O)[O-] (centres undefined) returned DT40 TDP1 no CPT -26%[9.04 µM], DT40 TDP1 CPT -28%[9.04 µM] and TDP1 inh 13%.
Screening O=C(CSc1ncc(-c2ccccc2)[nH]1)Nc1cccc(O)c1 returned DT40 TDP1 no CPT -14%, uPA generation 3%, miR-21 reporter -11%, DT40 TDP1 CPT -9% and TDP1 inh 11%.
For O=C(CSc1ncc(-c2ccccc2)[nH]1)Nc1ccccc1 the results were DT40 TDP1 no CPT inconclusive, uPA generation -1%, miR-21 reporter -32%, DT40 TDP1 CPT inconclusive and TDP1 inh 8%.
Screening O=C(CSc1ncc(-c2ccccc2)[nH]1)Nc1cccc(Br)c1 returned DT40 TDP1 no CPT inconclusive, miR-21 reporter -20%, DT40 TDP1 CPT 23µM* and TDP1 inh 10%.
O=C(CSc1ncc(-c2ccccc2)[nH]1)Nc1ccc(Cl)cc1 was read as DT40 TDP1 no CPT inconclusive, miR-21 reporter -20%, DT40 TDP1 CPT 21µM* and TDP1 inh 10%.
Screening CCOc1cc(-c2nc3c(c(CC)nn3-c3ccccc3)c3cc(OC)c(OC)cc23)ccc1O returned DT40 TDP1 no CPT inconclusive, miR-21 reporter -2%, DT40 TDP1 CPT 3.3µM* and TDP1 inh 6%[12.3 µM].
`CCc1nn(-c2ccccc2)c2nc(-c3ccccc3OC)c3cc(OC)c(OC)cc3c12` gave DT40 TDP1 no CPT 16µM*, miR-21 reporter -4%, DT40 TDP1 CPT 18µM* and TDP1 inh -8%[12.3 µM].
Fc1ccc(-c2ccnc3nc(N4CCOCC4)nn23)cc1 was read as DT40 TDP1 no CPT -3%, uPA generation 4%, miR-21 reporter -18%, DT40 TDP1 CPT -15% and TDP1 inh 4%.
COc1ccc(-c2ccnc3nc(N4CCN(c5ccccc5)CC4)nn23)cc1 was read as DT40 TDP1 no CPT 21µM*, uPA generation 3%, miR-21 reporter -8%, DT40 TDP1 CPT inconclusive and TDP1 inh 3%.
Screening Cc1ccc(C(=O)NCc2ccccc2F)cc1S(=O)(=O)N1CCCC1 returned DT40 TDP1 no CPT -1%, uPA generation 2%, miR-21 reporter -5% and DT40 TDP1 CPT 13%.
`CN(C(=O)CN1C(=O)/C(=C/c2ccccc2F)SC1=S)C1CCS(=O)(=O)C1` (centres undefined) gave DT40 TDP1 no CPT inconclusive, uPA generation -1%, miR-21 reporter -2%, DT40 TDP1 CPT 18µM* and TDP1 inh 9%.
`CN(C(=O)CN1C(=O)S/C(=C\c2ccccc2Cl)C1=O)C1CCS(=O)(=O)C1` (centres undefined) gave DT40 TDP1 no CPT 19%, uPA generation 0%, miR-21 reporter -8%, DT40 TDP1 CPT -22% and TDP1 inh 6%.
`CN(C(=O)CN1C(=O)/C(=C/c2ccccc2Cl)SC1=S)C1CCS(=O)(=O)C1` (centres undefined) gave DT40 TDP1 no CPT inconclusive, uPA generation 6%, miR-21 reporter 2%, DT40 TDP1 CPT 16µM* and TDP1 inh 5%.
For CCN(C(=O)CCN1C(=O)S/C(=C\c2ccccc2)C1=O)C1CCS(=O)(=O)C1 (centres undefined) the results were DT40 TDP1 no CPT inconclusive, uPA generation -8%, miR-21 reporter -4%, DT40 TDP1 CPT 16µM* and TDP1 inh 3%.
Screening CN(C(=O)CN1C(=O)S/C(=C\c2ccccc2)C1=O)C1CCS(=O)(=O)C1 (centres undefined) returned DT40 TDP1 no CPT -4%, uPA generation 11%, miR-21 reporter 3%, DT40 TDP1 CPT 16% and TDP1 inh 1%.
COc1cc2cc(C(=O)N3CCN(c4ccccc4OC)CC3)[nH]c2cc1OC was read as DT40 TDP1 no CPT -30%, uPA generation 3%, miR-21 reporter 1% and DT40 TDP1 CPT -4%.
`COc1ccc(Cl)cc1NS(=O)(=O)c1cccc(C(=O)NCCCN2CCOCC2)c1` gave DT40 TDP1 no CPT -20% and DT40 TDP1 CPT -17%.
For Cc1cnn(C(=S)NCc2ccc(Cl)cc2)c1 the results were DT40 TDP1 no CPT 23µM*, miR-21 reporter -7%, DT40 TDP1 CPT inconclusive and TDP1 inh 2%.
`Cc1cnn(C(=S)NCCc2ccccc2)c1` gave DT40 TDP1 no CPT inconclusive, uPA generation -3%, miR-21 reporter -54%, DT40 TDP1 CPT inconclusive and TDP1 inh 2%.
`Cc1ccc(C(=O)N2CCCC(CCC(=O)NCc3ccccc3F)C2)cn1` (centres undefined) gave DT40 TDP1 no CPT 5%, uPA generation -1%, miR-21 reporter -13%, DT40 TDP1 CPT -7% and TDP1 inh 6%.
For Cc1noc(-c2ccc(NCc3ccccc3)c([N+](=O)[O-])c2)n1 the results were DT40 TDP1 no CPT inconclusive, miR-21 reporter 5%, DT40 TDP1 CPT 18µM* and TDP1 inh 6%.
COc1cc(-c2noc(-c3ccc(NCc4ccccc4)c([N+](=O)[O-])c3)n2)cc(OC)c1OC was read as DT40 TDP1 no CPT inconclusive, miR-21 reporter 19%, DT40 TDP1 CPT inconclusive and TDP1 inh 3%.

Four compounds drawn at random from the list so far:
`Cc1ccc(C(=O)N2CCCC(CCC(=O)NCc3ccccc3F)C2)cn1` (centres undefined) gave DT40 TDP1 no CPT 5%, uPA generation -1%, miR-21 reporter -13%, DT40 TDP1 CPT -7% and TDP1 inh 6%.
COc1cc2cc(C(=O)N3CCN(c4ccccc4OC)CC3)[nH]c2cc1OC was read as DT40 TDP1 no CPT -30%, uPA generation 3%, miR-21 reporter 1% and DT40 TDP1 CPT -4%.
`CN(C(=O)CN1C(=O)/C(=C/c2ccccc2Cl)SC1=S)C1CCS(=O)(=O)C1` (centres undefined) gave DT40 TDP1 no CPT inconclusive, uPA generation 6%, miR-21 reporter 2%, DT40 TDP1 CPT 16µM* and TDP1 inh 5%.
`Cc1cnn(C(=S)NCCc2ccccc2)c1` gave DT40 TDP1 no CPT inconclusive, uPA generation -3%, miR-21 reporter -54%, DT40 TDP1 CPT inconclusive and TDP1 inh 2%.
